Values quoted from earlier work in publication PMC8464905, “Novel c-Jun N-Terminal Kinase (JNK) Inhibitors with an 11H-Indeno[1,2-b]quinoxalin-11-one Scaffold” (Molecules, 2021).
Like-named read-outs stand apart in the source and are kept apart here.

Chains of the proteins cited; added tags and fusions are not shown. Lines headed by an entry give the natural chain unless they say otherwise; changes in a name come on top.
UniProt P45983: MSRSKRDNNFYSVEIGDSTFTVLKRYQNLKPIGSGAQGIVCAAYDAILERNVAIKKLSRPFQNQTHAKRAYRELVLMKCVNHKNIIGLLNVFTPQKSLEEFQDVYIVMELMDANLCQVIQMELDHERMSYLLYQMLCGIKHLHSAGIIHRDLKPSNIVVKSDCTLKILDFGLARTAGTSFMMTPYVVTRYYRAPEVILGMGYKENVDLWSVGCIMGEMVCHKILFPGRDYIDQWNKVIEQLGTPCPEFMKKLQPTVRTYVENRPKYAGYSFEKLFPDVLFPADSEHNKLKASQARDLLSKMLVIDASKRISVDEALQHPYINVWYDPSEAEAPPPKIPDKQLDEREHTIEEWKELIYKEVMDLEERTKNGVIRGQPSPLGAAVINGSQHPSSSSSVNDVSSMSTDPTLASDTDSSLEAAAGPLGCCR
UniProt P53779: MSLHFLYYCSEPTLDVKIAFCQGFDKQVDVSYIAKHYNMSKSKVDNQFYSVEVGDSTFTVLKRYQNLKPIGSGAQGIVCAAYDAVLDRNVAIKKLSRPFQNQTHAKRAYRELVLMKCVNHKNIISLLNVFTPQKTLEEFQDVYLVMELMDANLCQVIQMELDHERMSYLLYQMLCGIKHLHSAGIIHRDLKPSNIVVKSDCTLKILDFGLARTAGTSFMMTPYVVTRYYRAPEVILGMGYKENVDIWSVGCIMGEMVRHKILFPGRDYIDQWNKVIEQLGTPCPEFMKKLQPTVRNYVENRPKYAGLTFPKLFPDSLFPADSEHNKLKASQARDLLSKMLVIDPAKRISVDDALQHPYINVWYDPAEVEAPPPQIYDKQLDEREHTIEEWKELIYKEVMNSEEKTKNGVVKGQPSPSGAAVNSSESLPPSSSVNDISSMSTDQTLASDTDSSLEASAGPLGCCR
UniProt P45984: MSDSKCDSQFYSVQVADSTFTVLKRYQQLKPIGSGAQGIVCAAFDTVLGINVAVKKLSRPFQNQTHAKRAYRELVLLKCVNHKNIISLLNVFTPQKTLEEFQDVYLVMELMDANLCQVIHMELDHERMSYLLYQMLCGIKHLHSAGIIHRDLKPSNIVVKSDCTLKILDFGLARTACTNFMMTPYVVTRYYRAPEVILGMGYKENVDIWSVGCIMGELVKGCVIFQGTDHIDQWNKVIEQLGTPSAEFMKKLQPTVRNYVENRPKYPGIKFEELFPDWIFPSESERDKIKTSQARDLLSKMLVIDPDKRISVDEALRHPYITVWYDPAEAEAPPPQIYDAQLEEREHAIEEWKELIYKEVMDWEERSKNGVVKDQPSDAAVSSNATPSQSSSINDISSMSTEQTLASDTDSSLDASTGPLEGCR

Legend:
Conditions in all cases: cited from earlier work
JNK1 = target: T1, JNK1 (Homo sapiens, UniProt P45983)
T1 construct: purchased Eurofins Pharma Discovery (KINOMEscan)

JNK3 = target: T2, JNK3 (Homo sapiens, UniProt P53779)
T2 construct: purchased Eurofins Pharma Discovery (KINOMEscan)

JNK2 = target: T3, JNK2 (Homo sapiens, UniProt P45984)
T3 construct: purchased Eurofins Pharma Discovery (KINOMEscan)

ON=C1c2ccccc2-c2nc3ccccc3nc21 [IQ-1, 11H-indeno[1,2-b]quinoxalin-11-one oxime]
Kd (JNK1; previously identified inhibitors, ref [35],[36], read-out: Kd JNK1): 200 nM
Kd (JNK1; ref [35], read-out: JNK1 Kd): 240 nM
Kd (JNK3; previously identified inhibitors, ref [35],[36], read-out: Kd JNK3): 100 nM
Kd (JNK3; ref [35], read-out: JNK3 Kd): 100 nM
Kd (JNK2; previously identified inhibitors, ref [35],[36], read-out: Kd JNK2): 400 nM
Kd (JNK2; ref [35], read-out: JNK2 Kd): 360 nM
